57 molecules from PubChem BioAssay AID1230 (PCMD, 2008) can be followed below.

By UniProt entry, the sequences of proteins in these tests, tags left out.
UniProt Q00987, whole entry, looked up: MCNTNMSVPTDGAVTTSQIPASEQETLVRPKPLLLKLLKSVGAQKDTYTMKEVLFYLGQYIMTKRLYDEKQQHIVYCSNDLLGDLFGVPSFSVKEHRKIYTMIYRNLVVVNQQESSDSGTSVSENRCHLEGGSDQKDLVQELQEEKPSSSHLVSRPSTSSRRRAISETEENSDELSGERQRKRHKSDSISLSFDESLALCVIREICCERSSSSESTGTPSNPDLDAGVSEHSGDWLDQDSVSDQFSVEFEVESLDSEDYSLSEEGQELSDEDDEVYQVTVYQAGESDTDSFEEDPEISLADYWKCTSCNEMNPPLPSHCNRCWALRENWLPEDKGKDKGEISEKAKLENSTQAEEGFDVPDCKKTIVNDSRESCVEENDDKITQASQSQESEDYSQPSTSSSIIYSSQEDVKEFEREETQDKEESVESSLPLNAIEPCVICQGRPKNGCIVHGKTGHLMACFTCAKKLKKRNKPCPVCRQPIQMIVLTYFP

The entries are a selection whose mix differs from that of the whole data set. Calls of active or inactive are those of the source.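 Rule for the calls: active = signal enhancement of 30% or more; inactive = the rest.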

This experiment addresses E3 ubiquitin-protein ligase Mdm2 (Homo sapiens) (UniProt Q00987). Put plainly: increase of MDM2 autoubiquitination reporter luminescence – cell-based, 1536-well, MDM2 E3 ligase inhibitor project, primary screen (AID 1230).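 Note: higher signal means inhibition of MDM2 E3 ligase activity.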 The following applies: cell-based MDM2 ubiquitination luciferase reporter, 2 h; at 5 µM; hits give high values; 0 = plate control, 100 = twice control, blank-subtracted. The method, boiled down: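 Test system: mammalian cells stably expressing self-ubiquitinating, self-degrading MDM2 E3–luciferase fusion; Amount: 2000 cells in each well; Medium: DMEM; Schedule: 4 h settle plus 2 h compound, 37 °C; Technique: SteadyLite luciferase luminescence after 15 min room-temperature reagent incubation; Benchmarks: plate control and blank wells.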
A general note: In a reporter assay the amount or activity of a reporter protein is the signal.
With `CC(C)(C)C(=O)NC(Sc1ccccc1)C(Cl)(Cl)Cl` (configuration not stated), the signal enhancement is inactive: -12.1%.
With `O=P1(Nc2nc3ccc(Cl)cc3s2)COc2ccccc2O1` (configuration not stated), the signal enhancement is inactive: -11.8%.
The figure for `CCOc1ccc(C2=NCC(CBr)S2)cc1` (configuration not stated) is inactive: -3.45%; for `COc1cc(C2NCCC3(OCCO3)C2(C)C)cc(OC)c1OC` (configuration not stated) it is inactive: -16%.
For `CCOP(=O)(Nc1cccc2ccccc12)OCC` the value was inactive: -10.1%; for `Nc1cccc2c([As](=O)(O)O)cccc12`, inactive: -30%; for `Cc1ccc(NCCc2c([N+](=O)[O-])cc([N+](=O)[O-])cc2[N+](=O)[O-])cc1`, inactive: 2.87%.
As for `Cc1cccc(OCC(=O)OC2CN3CCC2CC3)c1` (configuration not stated), the signal enhancement was inactive: -3.59%.
As for `O=[As](O)(c1cccc(O)c1)c1cccc(O)c1`, the signal enhancement was inactive: -8.08%.
Take `O=[As](O)(O)c1cccnc1`: the signal enhancement was inactive: -8.99%.
As to `COc1cc(C(=O)NCC2(N3CCOCC3)CCCCC2)cc(Cl)c1OC(C)C`, the signal enhancement is inactive: -3.01%.
For `O=C(OC1CN2CCC1CC2)c1ccc(Cl)cc1` (configuration not stated) the value was inactive: -10.7%; for `O=[N+]([O-])c1ccc2c(c1)nnn2O`, inactive: -13.7%; for `CCOP1(=S)c2c(C)nn(CCC#N)c2N=C(c2ccc(F)cc2)N1C` (configuration not stated), inactive: -18.2%.
Regarding `CN(C(=O)Cc1ccccc1)[C@@H]1CC[C@]2(CCCO2)C[C@H]1N1CCCC1`, the signal enhancement is inactive: 0.3%.
As to `NC(=O)Nc1ccc([As](=O)(O)O)cc1`, the signal enhancement is inactive: -0.85%.
For `O=C(O)COc1ccc([As](=O)(O)O)cc1[N+](=O)[O-]` the value was inactive: -14.6%; for `Nc1ccccc1[As](=O)(O)c1ccccc1`, inactive: -14.3%; for `CS(=O)(=O)c1cc([N+](=O)[O-])c2no[n+]([O-])c2c1`, inactive: -8.49%.
For `CCOP1(=S)c2c(C)nn(CCC#N)c2N=C(c2ccccc2F)N1C` (configuration not stated) the value was inactive: 2.68%; for `O=P(Nc1nccs1)(Oc1ccccc1)Oc1ccccc1`, inactive: -18%; for `O=P(Nc1nccs1)(c1ccccc1)c1nc2ccccc2s1` (configuration not stated), inactive: 6.83%.
For the molecule `Cc1ccc(OCC(=O)OC2CN3CCC2CC3)cc1` (configuration not stated), the signal enhancement is inactive: -10.1%.
For `O=P1(Nc2ccc(Br)cn2)COc2ccccc2OC1` the value was inactive: -14.8%; for `Nc1cccc([As](=O)(O)c2ccccc2)c1`, inactive: -6.24%; for `O=P1(Nc2ncccn2)COc2ccccc2OC1`, inactive: -9.58%.
For `O=C(/C=C/c1ccccc1)OC1CN2CCC1CC2` (configuration not stated) the value was inactive: 5.38%; for `CN(C)C1(CNC(=O)c2ccc(S(C)(=O)=O)cc2)CCCCC1`, inactive: -6.23%; for `Cc1nn(-c2ccccc2)c2c1P(=O)(N1CCOCC1)N(C)C(c1ccccc1)=N2` (configuration not stated), inactive: -18.2%.
The figure for `CC1CCC(C(C)C)C(OP(=O)(Nc2ccccn2)c2ccccc2)C1` (configuration not stated) is inactive: -2.1%; for `O=[As](O)(c1ccccc1Br)c1ccccc1Br` it is inactive: -8.19%.
Take `CC(C)/C=N\N=C(\N)N[N+](=O)[O-]`: the signal enhancement is inactive: 0.26%.
For `Clc1n[nH]nc1-c1nn[nH][15n]1` the value was inactive: -8.22%.
For `CC(C)(C)C(=O)NC(Sc1ncccn1)C(Cl)(Cl)Cl` (configuration not stated) the value was inactive: -15.3%; for `O=P1(Nc2ccccn2)COc2ccccc2OC1`, inactive: -7.05%.
Regarding `CCOC(=O)c1ccc(NC(=O)C(C)(CCl)SC)cc1` (configuration not stated), the signal enhancement was inactive: -3.28%.
The figure for `O=C(COc1ccccc1)OC1CN2CCC1CC2` (configuration not stated) is inactive: -5.93%; for `COP1(=S)c2c(C)nn(CCC#N)c2N=C(c2ccc(F)cc2)N1C` (configuration not stated) it is inactive: 4.48%; for `O=[N+]([O-])c1ccc(Nc2ccc(Oc3ccc([N+](=O)[O-])cc3[N+](=O)[O-])cc2)c([N+](=O)[O-])c1` it is inactive: -6.89%.
The figure for `Cc1cc(SC(NC=O)C(Cl)(Cl)Cl)ncn1` (configuration not stated) is inactive: -17%; for `O=P(Nc1ccccn1)(c1cccc2ccccc12)c1cccc2ccccc12` it is inactive: -12.8%.
Consider `CCOC(=O)Nc1cccc([As](=O)(O)O)c1`, for which the signal enhancement was inactive: -13%.
In the case of `Cc1cc(SC(NC(=O)c2ccccc2)C(Cl)(Cl)Cl)nc(C(C)C)n1` (configuration not stated), the signal enhancement is inactive: -12%.
For `CCOC(=O)Nc1ccc([As](=O)(O)O)c(O)c1` the value was inactive: 2.93%.
For `CC(C)NC(=O)NP(=O)(Oc1ccccc1)Oc1ccccc1` the value was inactive: -8.78%; for `CCN(CC)C(=S)SC(NC=O)C(Cl)(Cl)Cl` (configuration not stated), inactive: 5.86%.
The figure for `O=[N+]([O-])c1cc([N+](=O)[O-])c(-c2ccn[nH]2)s1` is inactive: 2.55%.
As to `CC(C)c1ccc(OP(=O)(Nc2ccccn2)Oc2ccccc2F)cc1` (configuration not stated), the signal enhancement was inactive: -13.7%.
The figure for `Cc1ccc2nc3c(c(C)c2c1)CC(C(Cl)Cl)S3` (configuration not stated) is inactive: -7.36%.
For `Cc1ccc(OP(=O)(Nc2ccc([N+](=O)[O-])cn2)Oc2ccc(C)cc2)cc1` the value was inactive: -8.42%.
For the molecule `C[As](=O)(O)c1cccc(C(=O)O)c1`, the signal enhancement is inactive: -1.71%.
On to `O=[As](O)(c1ccc(O)cc1)c1ccccc1O`, for which the signal enhancement was inactive: -12.7%.
The figure for `COc1ccc(N/C(=N/P(=O)(N2CCOCC2)N2CCOCC2)N2CCOCC2)cc1` is inactive: -2.28%.
The figure for `COc1ccc2nc(NP(=O)(c3ccccc3)c3ccccc3)sc2c1` is inactive: -19.4%; for `COc1cc(I)ccc1[As](=O)(O)O` it is inactive: -5.63%.
The figure for `O=C(OC1CN2CCC1CC2)C12CC3CC(CC(C3)C1)C2` (configuration not stated) is inactive: 8.36%; for `Cc1cc(=O)[nH]c(N[N+](=O)[O-])n1` it is inactive: -3.17%.
